PubChem BioAssay AID1845 (The Scripps Research Institute Molecular Screening Center, 2009)
The entries are a selection whose mix differs from that of the whole data set. The source made the active and inactive calls. Rule as the data show it: active = inhibition above about 37%; inactive = the rest.

Test: DNA intercalator displacement agents – biochemical, FID fluorescence, artefact control for HCV NS3 helicase inhibitor project, primary screen (AID 1845);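 also: 0% = vehicle and 100% = reference compound; higher means more ethidium bromide displaced from hairpin DNA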
Conditions: DNA fluorescent intercalator displacement, at 7.9 µM, active compounds read high

SMILES	inhibition
Cc1cccc(C)c1OP(C)(N)=O (centres undefined)	inactive: 0.97%
CC(C)(C)c1ccc(OP(C)(=O)Nc2ccc(SC(F)(F)F)cc2)cc1 (centres undefined)	inactive: -14.5%
O=[N+]([O-])c1ccc2c(c1)C=Nc1ccccc1O2	inactive: 9.09%
COc1ccc(OP(C)(=O)Nc2cccc(F)c2)cc1 (centres undefined)	inactive: -6.44%
COc1ccccc1OP(C)(=O)Nc1cc(Cl)ccc1C (centres undefined)	inactive: -20.1%
Cc1cc(C)cc(OP(C)(N)=O)c1 (centres undefined)	inactive: 3.22%
CCOC(=O)c1ccc(NP(C)(=O)Oc2ccccc2)cc1 (centres undefined)	inactive: -7.68%
Cc1ccc(NP(C)(=O)Oc2ccccc2)c(C)c1 (centres undefined)	inactive: -11.6%
COc1ccccc1OP(C)(=O)Nc1ccc(C)cc1 (centres undefined)	inactive: -8.18%
CCN(CC)CCCOC(=O)C(O)(c1ccccc1)c1ccccc1	inactive: 6.82%
Cc1cc(C)cc(OP(C)(=O)Nc2ccc(SC(F)(F)F)cc2)c1 (centres undefined)	inactive: -10.2%
CP(=O)(NC(=O)Nc1ccccc1)Oc1ccccc1 (centres undefined)	inactive: 1.78%
CCc1ccc(OP(C)(=O)N2CCN(c3ccc([N+](=O)[O-])cc3)CC2)cc1 (centres undefined)	inactive: -30.2%
CP(=O)(Oc1ccccc1)OC(c1ccccc1)C(F)(F)F (centres undefined)	inactive: -11.6%
Cc1cccc(C)c1OP(C)(=O)Nc1ccc(SC(F)(F)F)cc1 (centres undefined)	inactive: -10%
CP(=O)(Nc1ccc(SC(F)(F)F)cc1)Oc1ccc(Cl)cc1 (centres undefined)	inactive: -21.5%
CP(=O)(Nc1ccccn1)Oc1ccc(Cl)cc1 (centres undefined)	inactive: -0.23%
CCOP(C)(=S)SCC(=O)NC(C)C(=O)O (centres undefined)	inactive: -1.65%
CCOC(=O)c1ccc(NP(C)(=O)Oc2ccc(OC)cc2)cc1 (centres undefined)	inactive: -21.6%
COc1ccccc1OP(C)(=O)Nc1ccccc1 (centres undefined)	inactive: -2.26%
CP(=O)(Nc1ccccc1Br)Oc1ccccc1 (centres undefined)	inactive: -2.82%

SMILES	inhibition
CP(=S)(Nn1cnnc1)Oc1ccccc1 (centres undefined)	inactive: 0.11%
CCOC(=O)C(CC)C1=NC(C)(C)Cc2ccccc21.O=[N+]([O-])c1cc([N+](=O)[O-])c(O)c([N+](=O)[O-])c1 (centres undefined)	inactive: -1.07%
O=[N+]([O-])c1cc([N+](=O)[O-])c(Nc2nnnn2CCO)c([N+](=O)[O-])c1	inactive: 2.8%
CCCOc1ccc(NP(C)(=O)Oc2ccc(Cl)cc2)cc1 (centres undefined)	inactive: -27.9%
CP(=O)(Nc1ccc(SC(F)(F)F)cc1)Oc1ccccc1 (centres undefined)	inactive: -16.9%
COc1ccccc1OP(C)(=O)Nc1c(C)cccc1C (centres undefined)	inactive: -8.12%
CN1CCCCC1COC(=O)C1(O)c2ccccc2CCc2ccccc21 (centres undefined)	inactive: 5.39%
O=[N+]([O-])c1cc([N+](=O)[O-])c(-n2nnc3ccccc32)c([N+](=O)[O-])c1	inactive: 2.16%
Cc1nc2ccc3ccccc3c2s1.O=[N+]([O-])c1cc([N+](=O)[O-])c(O)c([N+](=O)[O-])c1	inactive: 1.89%
Cc1cc(C)cc(OP(C)(=O)Nc2ccc(C)cc2C)c1 (centres undefined)	inactive: -23.9%
CCOC(=O)c1ccc(NP(C)(=O)Oc2cc(C)cc(C)c2)cc1 (centres undefined)	inactive: -30.5%
COc1ccccc1OP(C)(=O)Nc1cccc(Br)c1 (centres undefined)	inactive: -22.2%
Cc1cc(C)cc(OP(C)(=O)Nc2ccccn2)c1 (centres undefined)	inactive: -3.01%
CP(=O)(Nc1cccc(Br)c1)Oc1ccccc1 (centres undefined)	inactive: -8.58%
Cc1ccc(C)c(NP(C)(=O)Oc2ccccc2)c1 (centres undefined)	inactive: -6.6%
O=C(O)c1cccc(Nc2c([N+](=O)[O-])cc([N+](=O)[O-])cc2[N+](=O)[O-])c1	inactive: -0.37%
CC1=NCCc2c1[nH]c1ccccc21.O=[N+]([O-])c1cc([N+](=O)[O-])c(O)c([N+](=O)[O-])c1	inactive: 13.9%
COc1ccc(OP(C)(=O)Nc2ccc(SC(F)(F)F)cc2)cc1 (centres undefined)	inactive: -21%
CCOC(=O)c1ccc(NP(C)(=O)Oc2ccc(F)cc2)cc1 (centres undefined)	inactive: -25.7%
CCCCCOc1ccc(NP(C)(=O)Oc2ccc(Cl)cc2Cl)cc1 (centres undefined)	inactive: -6.09%
O=[N+]([O-])c1cc([N+](=O)[O-])c(OC2CCCCC2O)c([N+](=O)[O-])c1 (centres undefined)	inactive: 1.44%

SMILES	inhibition
CP(=O)(Nc1ccccc1)Oc1ccc(F)cc1 (centres undefined)	inactive: -3.8%
CCN(CC)CCCOC(=O)C(O)(c1ccccc1)C1CCCCC1 (centres undefined)	inactive: 10.2%
CC(C)c1ccc(OP(C)(=O)Nc2ccc(SC(F)(F)F)cc2)cc1 (centres undefined)	inactive: -15.7%
CP(=O)(Nc1ccccc1F)Oc1ccccc1 (centres undefined)	inactive: -1.37%
O=C(OCCN1CCN(CCOCc2ccccc2)CC1)C(O)(c1ccccc1)c1ccccc1	inactive: 11.1%
O=C(OC1CN2CCC1CC2)c1ccc([N+](=O)[O-])cc1 (centres undefined)	inactive: 2.67%
CCOP(C)(=S)SCC(=O)NC(C)(CC)C(=O)O (centres undefined)	inactive: 0.14%
CP(=O)(Nc1ccc(SC(F)(F)F)cc1)Oc1ccc(F)cc1 (centres undefined)	inactive: -16.8%
Cc1ccccc1NP(C)(=O)Nc1ccccc1C	inactive: -1.71%
CP(=O)(Nc1ccc2c(c1)OCCO2)Oc1ccccc1 (centres undefined)	inactive: -6.05%
COc1ccc(NP(C)(=O)Oc2ccccc2OC)cc1 (centres undefined)	inactive: -5.24%
CN(C)CCOC(=O)C(O)(c1ccccc1)C1CCCCC1 (centres undefined)	inactive: 9.33%
COc1ccc(OP(C)(=O)Nc2cccc(Br)c2)cc1 (centres undefined)	inactive: -14.7%
Cc1cc(-c2cccc3ccccc23)c(C)cn1.O=[N+]([O-])c1cc([N+](=O)[O-])c(O)c([N+](=O)[O-])c1	inactive: -6.69%
O=[N+]([O-])c1cc([N+](=O)[O-])c(NCC2CCS(=O)(=O)C2)c([N+](=O)[O-])c1 (centres undefined)	inactive: -3.83%
O=[N+]([O-])c1ccc(OP2(=O)COCCO2)cc1 (centres undefined)	inactive: -4.31%
CP(=O)(OC12CC3CC(CC(C3)C1)C2)OC12CC3CC(CC(C3)C1)C2	inactive: -26%
CCOC(=O)c1ccc(NP(C)(=O)Oc2ccc(Cl)cc2)cc1 (centres undefined)	inactive: -21.3%
CCc1ccc(OP(C)(=O)Nc2cccnc2)cc1 (centres undefined)	inactive: -6.49%
CP(=O)(Oc1ccccc1)N1CCOC1=O (centres undefined)	inactive: 2.17%
O=C(OCCCN1CCCC1)C(O)(c1ccccc1)C1CCCCC1 (centres undefined)	inactive: 15%

SMILES	inhibition
COc1ccccc1OP(C)(=O)Nc1c(C)n(C)n(-c2ccccc2)c1=O (centres undefined)	inactive: -17.4%
COc1ccc(OP(C)(=O)Nc2ccc(Br)cc2)cc1 (centres undefined)	inactive: -18.6%
CCN(CC)CC(O)COC(=O)C(O)(c1ccccc1)C1CCCCC1 (centres undefined)	inactive: 11.6%
CN(C)C(=O)c1c([N+](=O)[O-])cc([N+](=O)[O-])cc1[N+](=O)[O-]	inactive: -1.24%
CP(=O)(Nc1ccc(Cl)cc1)Oc1ccc(F)cc1 (centres undefined)	inactive: -9.45%
COc1ccccc1OP(C)(=O)Nc1ccccc1Br (centres undefined)	inactive: 4.1%
CC(C)(C)c1ccc(OP(C)(=O)O)cc1	inactive: -2.37%
CN(C)CCOC(=O)C(O)(c1ccccc1)C1CCCC1 (centres undefined)	inactive: 9.91%
COc1ccc(OP(C)(=O)Nc2ccccn2)cc1 (centres undefined)	inactive: -0.64%
COc1ccccc1OP(C)(=O)Nc1ccc(Br)cc1 (centres undefined)	inactive: -10.1%
CCc1ccc(OP(C)(=O)O)cc1	inactive: 1.15%
COc1ccccc1OP(C)(=O)Nc1ccc(C)cc1C (centres undefined)	inactive: -16.8%
CP(=O)(Nc1ccccn1)Oc1ccccc1 (centres undefined)	inactive: 2.34%
Cc1c(NP(C)(=O)Oc2ccc(C(C)C)cc2)c(=O)n(-c2ccccc2)n1C (centres undefined)	inactive: -30.5%
O=[N+]([O-])c1cc([N+](=O)[O-])c(Nc2ccccn2)c([N+](=O)[O-])c1	inactive: 10.8%
COc1ccc(OP(C)(=O)Nc2ccccc2Br)cc1 (centres undefined)	inactive: -10.8%
COc1ccccc1OP(C)(=O)Nc1ccc(C)c(C)c1 (centres undefined)	inactive: -13.7%
Cc1cc(C)cc(OP(C)(=O)Nc2cccc(C(F)(F)F)c2)c1 (centres undefined)	inactive: -20.9%
CP(=O)(Nc1ccc(Cl)cc1Cl)Oc1ccccc1 (centres undefined)	inactive: -8.83%
CP(=O)(OCCOc1ccccc1)OCCOc1ccccc1	inactive: -28.1%
Cc1nc2ccc3ccccc3c2o1.O=[N+]([O-])c1cc([N+](=O)[O-])c(O)c([N+](=O)[O-])c1	inactive: 10.4%
